The target in the assay is COX-2 (Homo sapiens, UniProt P35354). The assay can be described thus: UV-vis titration with COX-2 (Benesi-Hildebrand). In kind it is binding. The arrangement: purchased Cayman Chemical Co. 560131.

Protein sequences, listed by entry. Tags and fused reporters are not part of them. Residues count along the entry.
UniProt P35354, 18-604: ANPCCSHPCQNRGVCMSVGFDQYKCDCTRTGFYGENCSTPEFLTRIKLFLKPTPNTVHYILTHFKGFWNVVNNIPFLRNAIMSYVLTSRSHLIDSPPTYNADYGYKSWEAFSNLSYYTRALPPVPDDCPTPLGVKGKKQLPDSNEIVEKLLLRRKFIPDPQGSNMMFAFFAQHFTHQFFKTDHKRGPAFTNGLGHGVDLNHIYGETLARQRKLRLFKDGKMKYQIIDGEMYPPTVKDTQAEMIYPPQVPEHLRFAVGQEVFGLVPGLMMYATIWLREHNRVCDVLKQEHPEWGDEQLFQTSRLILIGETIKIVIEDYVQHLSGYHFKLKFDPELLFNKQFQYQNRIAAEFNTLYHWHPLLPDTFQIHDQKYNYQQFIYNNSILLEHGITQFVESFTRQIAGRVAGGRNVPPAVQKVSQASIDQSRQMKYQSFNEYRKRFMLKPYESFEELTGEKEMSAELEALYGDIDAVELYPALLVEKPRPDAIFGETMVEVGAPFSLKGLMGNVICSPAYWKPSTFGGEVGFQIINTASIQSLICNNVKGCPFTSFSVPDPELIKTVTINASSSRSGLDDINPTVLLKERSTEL

The values that follow come from paper PMC6030096, “Synergy of Physico-chemical and Biological Experiments for Developing a Cyclooxygenase-2 Inhibitor” (Scientific Reports, 2018).

Turning to `O=C1NC(=O)C(=Cc2cn(C[C@H](O)Cn3c4ccccc4c(=O)c4ccccc43)c3ccccc23)C(=O)N1` [(S)-3a], the affinity, expressed as Kd, was 1870 nM.
